One series deals with human erythrocytes. The series is described as follows: Hemolytic activity (cytotoxicity). The series is classed as cell-based. The following applies: 200 μM peptide, 8% human erythrocytes in PBS, 37° C., 1 hour; 1% triton X-100 = 100%. As for the experimental part:
Particularly, human erythrocytes were diluted in phosphate buffered saline (PBS, pH 7.0) at the concentration of 8%, to which the peptide 2-fold diluted from 200 μM/well was added, followed by reaction at 37° C. for 1 hour. Centrifugation was performed at 1,000 g and the level of hemoglobin included in the supernatant was measured by measuring OD414. To examine hemolysis, 1% triton X-100 was added to human erythrocytes, followed by measuring absorbance of the supernatant. The hemolytic activity of 1% triton X-100 was regarded as 100%, with which hemolytic activity of each antibacterial peptide was compared. The result was presented by the numbers calculated by the following mathematical formula 1. % hemolysis=(absorbance A−absorbance B/absorbance A−absorbance B)×100 [Mathematical Formula 1]
In the above formula, absorbance A indicates the absorbance of the peptide solution measured at 414 nm, absorbance B indicates the absorbance of PBS measured at 414 nm, and absorbance C indicates the absorbance of 1% triton X-100 measured at 414 nm.

The test system of a further series is S. aureus. The series is classed as cell-based, Staphylococcus aureus. An excerpt: (§1) To measure the antibacterial activity of the peptide prepared in Example 1, the present inventors measured MIC, the minimal concentration that can keep the strain without being divided. For the measurement of antibacterial activity, Gram-positive bacteria selected from the group consisting of Bacillus subtilis, Staphylococcus aureus and Listeria monocytogenes, Gram-negative bacteria selected from the group consisting of Escherichia coli, Psedomonas aeruginosa and Salmonella typhimurium, and antibiotic-tolerant strains selected from the group consisting of E. coli (E. coli CCARM 1229, 1238), Salmonella (S. typhimurium CCARM 8007, 8009, 8013) and Staphylococcus (S. aureus CCARM 3089, 3090, 3108, 3114, 3126) were used. After cultured in optimal media, the strains were diluted at the density of 2×10^5 cells/ml, which were then inoculated on microtitrate plates. The peptide synthesized in Example 1 and the positive control peptide (Melittin) were 2-fold diluted in sodium phosphate buffer and phosphate buffered saline (PBS) from 200 μM/well, which were added in the plate, followed by culture at 37° C. for 18˜24 hours. OD620 was measured with a microtitrate plate reader to determine MIC of each strain. The results are presented in Table 1 (the number in bracket indicates the one obtained from PBS).

Another series deals with S. typhimurium. The series is classed as cell-based, Salmonella typhimurium.
Text: as §1

Another series deals with B. subtilis. The series is classed as cell-based, Bacillus subtilis.
Text: as §1

In a further series the test system is E. coli. Format: cell-based, Escherichia coli.
Text: as §1

A further series concerns E. coli CCARM 1229. The series is classed as cell-based, Escherichia coli.
Text: as §1

In another series the test system is P. aeruginosa. The series is classed as cell-based, Psedomonas aeruginosa.
Text: as §1

This is an account of results in patent US10301354B2, “Antibacterial and fungicidal peptide in which lysine and tryptophan residues are repeated, and use thereof” (priority 2011, dated 2019).

Values after ≈ are worked out from the molar mass of the structure shown. Like-named read-outs stand apart in the source and are kept apart here.

By MIC is commonly meant the lowest concentration that inhibits growth of the organism. In the case of `CC[C@H](C)[C@H](NC(=O)CN)C(=O)NCC(=O)N[C@@H](C)C(=O)N[C@H](C(=O)N[C@@H](CC(C)C)C(=O)N[C@@H](CCCCN)C(=O)N[C@H](C(=O)N[C@@H](CC(C)C)C(=O)N[C@H](C(=O)N[C@H](C(=O)NCC(=O)N[C@@H](CC(C)C)C(=O)N1CCC[C@H]1C(=O)N[C@@H](C)C(=O)N[C@@H](CC(C)C)C(=O)N[C@H](C(=O)N[C@@H](CO)C(=O)N[C@@H](Cc1c[nH]c2ccccc12)C(=O)N[C@H](C(=O)N[C@@H](CCCCN)C(=O)N[C@@H](CCCNC(=N)N)C(=O)N[C@@H](CCCCN)C(=O)N[C@@H](CCCNC(=N)N)C(=O)N[C@@H](CCC(N)=O)C(=O)N[C@@H](CCC(N)=O)C(N)=O)[C@@H](C)CC)[C@@H](C)CC)[C@@H](C)O)[C@@H](C)O)C(C)C)C(C)C` [Melittin], in the series with human erythrocytes, the “Hemolysis (hemolytic activity)” value worked out at 100%. The MIC result is “(1.56) μM” in the series on S. aureus (PBS (number in bracket)); 1.56 µM (≈ 4.44 µg/mL) in the series with S. aureus (sodium phosphate buffer); “(0.39) μM” in the series on S. typhimurium (PBS (number in bracket)); 0.39 µM (≈ 1.11 µg/mL) in the series with S. typhimurium (sodium phosphate buffer); “(3.12) μM” with B. subtilis (PBS (number in bracket)); 1.56 µM (≈ 4.44 µg/mL) against B. subtilis (sodium phosphate buffer). The MIC result was “(1.56) μM” in the series on E. coli (PBS (number in bracket)); 1.56 µM (≈ 4.44 µg/mL) with E. coli (sodium phosphate buffer); “(3.12) μM” in the series on E. coli CCARM 1229 (PBS (number in bracket)); 3.12 µM (≈ 8.88 µg/mL) against E. coli CCARM 1229 (sodium phosphate buffer); “(3.12) μM” against P. aeruginosa (PBS (number in bracket)); 3.12 µM (≈ 8.88 µg/mL) against P. aeruginosa (sodium phosphate buffer).
